Measured values as given in publication PMC12557365 (Journal of Medicinal Chemistry, 2025).

Experiment: in vitro
Settings: pig, LLC-PK1

SMILES: CC(C)(C)[C@H](NC(=O)C(F)(F)F)C(=O)N1C[C@H]2[C@@H]([C@H]1C(=O)N[C@H](C#N)C[C@@H]1CCNC1=O)C2(C)C [nirmatrelvir, reference compound]
- efflux ratio: 2.3
